{"sequences": {"note": "Amino acid sequences for entries named in this document (tags omitted).", "UniProt P33535, whole entry": "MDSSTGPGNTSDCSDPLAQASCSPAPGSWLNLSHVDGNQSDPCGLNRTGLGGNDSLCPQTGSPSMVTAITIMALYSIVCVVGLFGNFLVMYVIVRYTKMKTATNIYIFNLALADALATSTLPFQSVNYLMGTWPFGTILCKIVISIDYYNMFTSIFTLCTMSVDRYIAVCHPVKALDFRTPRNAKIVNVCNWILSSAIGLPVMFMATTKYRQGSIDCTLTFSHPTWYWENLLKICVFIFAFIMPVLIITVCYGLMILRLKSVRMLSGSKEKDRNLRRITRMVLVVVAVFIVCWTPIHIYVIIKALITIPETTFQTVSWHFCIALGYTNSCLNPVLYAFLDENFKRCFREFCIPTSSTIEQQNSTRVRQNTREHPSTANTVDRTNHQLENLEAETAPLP"}, "source": "ChEMBL document CHEMBL1133148", "about": "(Bioorg Med Chem Lett, 2000)", "biological_target": "Mu-type opioid receptor (Rattus norvegicus, UniProt P33535)", "assay": "Binding affinity towards Opioid receptor mu 1", "in_short": "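Rat brain minus cerebellum, homogenised in 0.32 M sucrose and spun. The membrane pellet was preincubated 1 h at room temperature in Tris pH 7.5/NaCl to strip endogenous opioids. Nonspecific binding with 10 μM DAMGO. Filtration, scintillation counting.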", "data": [{"smiles": "C[C@@H](NC(=O)[C@@H](N)Cc1ccc(O)cc1)C(=O)NCC(=O)N(C)[C@@H](Cc1ccccc1)C(=O)NCCO", "note": "[DAMGO]", "values": [{"measurement": "Ki", "value": 1.64, "unit": "nM"}]}]}
